{"source": "patent US8815249B2", "about": "(priority 1999, dated 2014)", "origin": "cited, not measured here", "biological_target": "HER-2/neu (Homo sapiens, UniProt P04626)", "conditions": "in vivo; cited from earlier work"}
{"substance": "Herceptin", "values": [{"measurement": "1 year survival rate", "result": 78, "unit": "%"}, {"measurement": "duration of response (median)", "result": 9.1}, {"measurement": "median survival", "result": 25.1, "unit": "mo"}, {"measurement": "rate of objective response", "result": 50, "unit": "%"}, {"measurement": "reduction in the risk of death", "result": 20, "unit": "%"}, {"measurement": "time to disease progression", "result": 7.4, "unit": "mo"}]}
